As a reminder, the Km is the concentration of substrate that gives half-maximal velocity. In general, kcat refers to the number of substrate molecules converted per active site and unit of time at saturation. By kcat/Km is commonly meant the second-order rate constant that governs catalysis at low substrate concentration.

Experiment in all cases: purified protein
Holding throughout (details): 50 mM HEPES pH 7.7, 100 mM NaCl, 20 μM PLP, 1 mM DTT, 26 °C

Substrate in data set [1]: NCCCC[C@H](N)C(=O)O
Substrate in data set [2]: N=C(N)NCCC[C@H](N)C(=O)O
Substrate in data set [3]: NCCC[C@H](N)C(=O)O

B1: T. thermosaccharolyticum O/LDC (aO/LDC) (Thermoanaerobacterium thermosaccharolyticum DSM 571) (protein)
chain: MEKLNHFETPLFDALMEYVNNNTIPFHVPGHKKGNGMAKKFFDFVGKNVLSMDVTVFEQVDSLHKPTGPIKKAQELAADAFGADATFFCIHGTSGAIQAMILSVMGENEKIIVPRNIHKSVTSGIILSGAIPVYMQPEVDKNVGVALNVTPETVEEALRNNPDAKAVLIINPTYYGVSADIVKIAEIVHDYGAILMVDEAHGPHLKFNEKLPISAMEAGADICAQSTHKIIGSMTQSSMLHVKSKRIDINRVKQVMSLLQTTSPSYILLASLDVARMQMVTEGKQLLDKTIELAEYARKEINNINGLYCFGNEIVGRDGAYDFDPTKITITAKGLGITGHELENILAKKYYIQPELADMYNALCVFSIGDTKENVDYLIRALREISETLYKDNVEMSKALDIPEIPEMVLSPRYAFECSNVALPLEESIGQISSEFLMAYPPGIPILCPGERITREIIEYVIEMKNAKLSIQGTEDPNVEYIKVVNDLQILNITA
With B1, in data set [1], the Km stood at 500 ± 10 µM, the kcat was 0.57 s⁻¹ and the kcat/Km came to 1100 M⁻¹ s⁻¹. Further, in data set [2], the Km came to 660 ± 100 µM, the kcat stood at 0.38 s⁻¹ and the kcat/Km was 580 M⁻¹ s⁻¹. In data set [3], the Km came out at 700 ± 60 µM, the kcat turned out to be 0.87 s⁻¹ and the kcat/Km is 1300 M⁻¹ s⁻¹.

Values taken from paper PMC8503589 (The Journal of Biological Chemistry, 2021).
